For this assay, the system named is HL053PA1 strain (RT4) and HL043PA1 strain (RT5) versus HL110PA3 strain (RT6). The experiment in a line: Strain-selective antibacterial activity (average of MICRT6/MICRT4 and MICRT6/MICRT5). The class given is cell-based, Propionibacterium acnes. To be noted: pH 6.0 (Example 1). The text has this:
Herein, “acne strain-selective antibacterial activity” or “strain-selective antibacterial activity” means an index indicating better inhibition of growth of a dominant strain in acne patients compared to that of a dominant strain in healthy subjects. It is expressed by the average value of the values (MICRT6/MICRT4, and MICRT6/MICRTS) obtained by dividing the minimum inhibitory concentration (MIC) of an object substance with respect to the dominant strain in healthy subjects (RT6 strain) (MICRT6) respectively by the MIC of the object substance with respect to the dominant strain in acne patients (RT4 strain) (MICRT4), and by the MIC of the object substance with respect to the dominant strain in acne patients (RT5 strain) (MICRT5).
The strain-selective antibacterial activity of each test substance (Table 2, right-most column) was evaluated based on the following rating criteria (Table 3). When the strain-selective antibacterial activity is indicated by a numerical range, the rating was based on the minimum value thereof.

Compound `CCCCCCCCCCCC(=O)O` [Lauric acid (C12:0), Lauric acid, reference compound] registered a Strain-selective antibacterial activity of 0.75.
